Earlier results as cited in paper PMC6314986.

Conditions: urine of the deceased individual; cited from earlier work

Structure (SMILES): CCCCCn1cc(C(=O)N2CCN(C)CC2)c2ccccc21
- Urinary level of unchanged compound, previously found: 527 ng/mL
